## Ab-95 light chain CDR variants: yeast mating affinities

Reference: Engelhart et al. 2022, doi:10.1038/s41597-022-01779-4. File: FLAb, binding data.

Binding partner: SARS-CoV-2 spike HR2 peptide, sequence PDVDLGDISGINAS.

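The starting antibody came from a phage panning campaign against this peptide. Variants in AAYL52 differ from the parent at up to three CDR positions; double and triple changes were sampled at random. The assay is AlphaSeq: two haploid yeast populations carry antibody and antigen on their surface. Binding brings cells together so that they mate, and sequencing counts the barcode pairs among the diploids. Each replicate has its own calibration line, from reference interactions of the BCL2 family. There are three technical replicates.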

Ab-95 is the parent antibody, in scFv form: VH, then three GGGGS repeats, then VL. The heavy chain is unchanged in all variants.
VH: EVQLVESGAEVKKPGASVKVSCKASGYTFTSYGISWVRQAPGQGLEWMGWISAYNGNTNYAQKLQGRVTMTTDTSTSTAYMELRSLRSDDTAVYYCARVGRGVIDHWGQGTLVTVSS
VL: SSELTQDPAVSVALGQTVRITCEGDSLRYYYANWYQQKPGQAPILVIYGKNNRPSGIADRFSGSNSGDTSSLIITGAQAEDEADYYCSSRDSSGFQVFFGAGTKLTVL

The parent's light chain CDRs are EGDSLRYYYAN, GKNNRPS, SSRDSSGFQVF; each variant's own CDRs replace them letter for letter. Values are log10 of the apparent Kd in nM; lower means stronger binding. A mean of the replicates is given; it leaves out those without a signal. Where no diploid with the target was found in any replicate, the entry reads "not detected": below detection, most likely a poor binder, though not proof of it.

| # | CDR-L1 | CDR-L2 | CDR-L3 | log10 Kd (nM), mean | seen in |
|---|---|---|---|---|---|
| 1 | CGDSLNYYYAN | GKNNRPS | SSRDSSGFQVP | 1.82 | 3 of 3 |
| 2 | EGDSLRYYYAN | GKNNRPL | SSWDSSQFQVF | 5.28 | 1 of 3 |
| 3 | EGDSLRYYYAN | GKNNRPS | SSMDSSGFMVF | 3.40 | 1 of 3 |
| 4 | EGDSLRYYYAN | GLNNKPS | SSRDSSGFVVF | 2.83 | 3 of 3 |
| 5 | EGDSLRYYTAN | GKNNRPQ | SSRDSSGFQSF | 2.50 | 3 of 3 |
| 6 | EGISLRYYYMN | GKNNRPS | SSRDSSGFCVF | 3.71 | 3 of 3 |
| 7 | EGDSLRYYYAN | GENNRPS | SSRDSSDFQVF | not detected | 0 of 3 |
| 8 | EGDSLRYYYAN | GKNNRDS | STRDSSGFQVS | 3.03 | 2 of 3 |
| 9 | AGDSERYDYAN | GKNNRPS | SSRDSSGFQVF | 2.63 | 3 of 3 |
| 10 | EGDSLRYYYAF | GKNNRVS | SSDDSSGFQVF | 5.59 | 1 of 3 |
| 11 | EGDSLRYYYFS | GKNNRPS | SSRDSSGFQVF | not detected | 0 of 3 |
| 12 | EGDSLRYYDAN | GKNNEPS | SSRDSMGFQVF | 4.52 | 1 of 3 |
| 13 | EGDSLRYCYAN | GKNNRPS | SSRPSSGFQVF | 4.42 | 3 of 3 |
| 14 | EGFSNRYYYAN | GKNNRPS | SSRDSSGFQVF | 2.89 | 3 of 3 |
| 15 | EGDSLRDYYAN | GKCNRPS | SSRDSSGFQNF | 3.66 | 2 of 3 |
| 16 | EGDKLRYYCAN | GKCNRPS | SSRDSSGFQVF | 4.44 | 1 of 3 |
| 17 | EGDSLRQYYAN | GKNNRPS | SSRDSPGYQVF | 2.64 | 3 of 3 |
| 18 | EGDSQRSYYAN | GKNNRPS | SERDSSGFQVF | 5.02 | 1 of 3 |
| 19 | EGDGWYYYYAN | GKNNRPS | SSRDSSGFQVF | not detected | 0 of 3 |
| 20 | EGDSLRYYYQN | GKNNRKS | SERDSSGFQVF | 4.63 | 2 of 3 |
| 21 | PGDSLYYYYAN | GKNNRPS | SSRDSSGLQVF | not detected | 0 of 3 |
| 22 | ELDSLRYVFAN | GKNNRPS | SSRDSSGFQVF | 4.52 | 3 of 3 |
| 23 | EYDSLRYYYAN | GKNNRPS | SSRDSSRFQVQ | 2.75 | 3 of 3 |
| 24 | EGDSLFIYYAN | GKNNRPS | SSRISSGFQVF | 3.91 | 1 of 3 |
| 25 | EGDSLMYYYGN | GKNNRPS | SSRDSSGFVVF | 5.03 | 2 of 3 |
| 26 | EGDSPRFYYAN | GKNNGPS | SSRDSSGFQVF | 4.21 | 2 of 3 |
| 27 | EGDSLTYYYAN | GKNNNPS | SSRISSGFQVF | 5.51 | 1 of 3 |
| 28 | EGDHLRYYYAN | GKNNRPS | SSRMSSGFQVF | 3.07 | 2 of 3 |
| 29 | EGDSLRYYYAN | GKHNRPS | SSRDSKQFQVF | 4.29 | 2 of 3 |
| 30 | ENLSLRYYYAN | GKNNRPS | SSRDSSGCQVF | 4.22 | 1 of 3 |
| 31 | EGGSLRYYYAN | TKNNRPS | SSRDSSGFQVF | 3.89 | 3 of 3 |
| 32 | EGDYLRYYKAN | GKNNRPS | SSRDSSGFPVF | 3.42 | 3 of 3 |
| 33 | EGDSLNYYYAN | GKNNCPS | SSRDSSGSQVF | not detected | 0 of 3 |
| 34 | EGDSLRYYYAN | GKNYRPS | SSRDSSGLQVT | 3.49 | 3 of 3 |
| 35 | EGDQLRYYYAN | GKINRPE | SSRDSSGFQVF | 3.59 | 2 of 3 |

Further variants, results first:

| # | log10 Kd (nM), mean | seen in | CDR-L1 | CDR-L2 | CDR-L3 |
|---|---|---|---|---|---|
| 36 | 4.83 | 2 of 3 | HGDSLRYYYAN | GKNNRPS | GSRYSSGFQVF |
| 37 | not detected | 0 of 3 | EGEELRYYYAN | GKNNRPS | SSLDSSGFQVF |
| 38 | 3.71 | 3 of 3 | EGDSLRWYYAN | GKNNRPS | SPRDSSWFQVF |
| 39 | 3.74 | 1 of 3 | VGDSLRYYYAT | GKNNRPS | SSRDSSGFQIF |
| 40 | 4.32 | 1 of 3 | EGDSLRKYYAN | GKNNRPS | SSNDSSGFQYF |
| 41 | 4.58 | 1 of 3 | EGDSLRYYYEN | MKNNRPS | SSRDSSGFKVF |
| 42 | 4.32 | 2 of 3 | EMDSYRYYYAN | GKNNRPS | SSRDSSGVQVF |
| 43 | 3.48 | 2 of 3 | EGDSQEYWYAN | GKNNRPS | SSRDSSGFQVF |
| 44 | 4.52 | 3 of 3 | DGDSLIYYYAN | GKNNRPS | SSRDSSGFCVF |
| 45 | 5.09 | 1 of 3 | EGDSLWYYAAN | MKNNRPS | SSRDSSGFQVF |
| 46 | 2.58 | 3 of 3 | EGDSLRYYYTN | GANNRPS | SDRDSSGFQVF |
| 47 | 2.82 | 3 of 3 | EGDSSRYYQAN | GKNNRPS | SARDSSGFQVF |
| 48 | 3.65 | 3 of 3 | EGDSLRYYYAN | GKNNRPS | SSRDDSGFKVM |
| 49 | 5.05 | 1 of 3 | EGDSLDYYYAN | GKNNRIS | SGRDSSGFQVF |
| 50 | 3.19 | 2 of 3 | SGDSLRYYYAN | GKNNRPS | SQRDSSAFQVF |
| 51 | not detected | 0 of 3 | EGDSLRYYYAN | GKNNNRS | SSRDSSGFPVF |
| 52 | 1.61 | 3 of 3 | EGDSLRYYYAN | GKNNRPS | SSRDMSGFKVF |
| 53 | 3.17 | 1 of 3 | EGDSLRYYYAN | GKNNRPS | SRRDSSGFQLF |
| 54 | 2.24 | 3 of 3 | EGDSHRYKYAN | GKNNRPS | SSRDASGFQVF |
| 55 | 3.24 | 3 of 3 | EGDSLRYYYAN | EKNNRPM | SSRDSSGFQVF |
| 56 | 0.98 | 3 of 3 | EGDSLRYEYAN | GKNIRPS | SSRDSSGFQVF |
| 57 | 3.42 | 1 of 3 | EFDSLRLYYAN | GKFNRPS | SSRDSSGFQVF |
| 58 | 2.66 | 3 of 3 | EGDSLRYLYAN | GKNNRPS | SSRDDSGQQVF |
| 59 | 3.03 | 3 of 3 | VGNSLRWYYAN | GKNNRPS | SSRDSSGFQVF |
| 60 | 2.91 | 2 of 3 | EGDSLLYYYAN | GKNFRPS | SSRDSSGGQVF |
| 61 | 4.96 | 1 of 3 | EGDSLRYDYAN | GKNNRPS | CYRDSSGFQVF |
| 62 | 2.93 | 3 of 3 | EGDYLRSYYAN | GGNNRPS | SSRDSSGFQVF |
| 63 | 4.12 | 1 of 3 | EGDSLRMYYAN | GENNRPS | SSRDSSGFQMF |
| 64 | 4.29 | 2 of 3 | EGDSLRYYYAN | SKNNRPS | SSRDISGFQGF |
| 65 | 5.55 | 1 of 3 | ERDSLRYYYAN | GKNNRPS | SYRCSSGFQVF |
| 66 | 3.38 | 3 of 3 | EGDSLRYYYAN | GKFQRPS | SSRDSSGFQVF |
| 67 | not detected | 0 of 3 | EGDSLRYYYAE | GKINRES | SSRDSSGFQVF |
| 68 | 3.47 | 3 of 3 | EGDSLRYYYAN | GKNNRPS | SSRDHSQHQVF |
| 69 | 3.11 | 3 of 3 | EGDSLRQYYAN | GKANRPS | SSRDSSGFQVA |
| 70 | 5.31 | 1 of 3 | EGDSLRYYYAI | GKNNRPS | SSRDSSPKQVF |

The opening 11 entries, copied out:

| CDR-L1 | CDR-L2 | CDR-L3 | log10 Kd (nM), mean | seen in |
|---|---|---|---|---|
| CGDSLNYYYAN | GKNNRPS | SSRDSSGFQVP | 1.82 | 3 of 3 |
| EGDSLRYYYAN | GKNNRPL | SSWDSSQFQVF | 5.28 | 1 of 3 |
| EGDSLRYYYAN | GKNNRPS | SSMDSSGFMVF | 3.40 | 1 of 3 |
| EGDSLRYYYAN | GLNNKPS | SSRDSSGFVVF | 2.83 | 3 of 3 |
| EGDSLRYYTAN | GKNNRPQ | SSRDSSGFQSF | 2.50 | 3 of 3 |
| EGISLRYYYMN | GKNNRPS | SSRDSSGFCVF | 3.71 | 3 of 3 |
| EGDSLRYYYAN | GENNRPS | SSRDSSDFQVF | not detected | 0 of 3 |
| EGDSLRYYYAN | GKNNRDS | STRDSSGFQVS | 3.03 | 2 of 3 |
| AGDSERYDYAN | GKNNRPS | SSRDSSGFQVF | 2.63 | 3 of 3 |
| EGDSLRYYYAF | GKNNRVS | SSDDSSGFQVF | 5.59 | 1 of 3 |
| EGDSLRYYYFS | GKNNRPS | SSRDSSGFQVF | not detected | 0 of 3 |

Empty control strains, which show no peptide, gave a signal in 28% of pairings with library AAYL52; the median was 3.91 and 95% of these signals were weaker than 2.90. No background was subtracted. Parent in this assay: reference entry 2.31, copy in this library 2.25.